According to US20070141619A1, “DRUG RESISTANCE-ASSOCIATED GENE AND USE THEREOF” (BANYU PHARMACEUTICAL CO., Ltd., priority 2000, published 2007):

Tested on: HCT116/NR1
Experiment: SRB drug sensitivity, Compound-A-resistant HCT116/NR1
Type: cell-based
Details: Homo sapiens, HCT-116, 72 hours with agent
Description: An emerging colony was isolated and designated as HCT116/NR1.

- IC50: 140 nM
SMILES: CC[C@@]1(O)C(=O)OCc2c1cc1n(c2=O)Cc2cc3c(CN(C)C)c(O)ccc3nc2-1 [Topotecan]
